Here are results for 104 molecules from PubChem BioAssay AID1486 (The Scripps Research Institute Molecular Screening Center, 2009).

Each structure is given as a SMILES string. Values joined by “and” are separate entries in the source; they are usually repeats but may differ in a detail not shown here. Identical values can stand only once. Only a part is listed here, and it is no random draw. Active and inactive are the calls of the source.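 The calls were made as follows: active = inhibition above a per-campaign cutoff, the mean inhibition of all tested compounds plus 3 SD (cut at about 27% in these data); inactive = the rest.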

The test in a line: growth loss in parental Ba/F3 cells – cell-based, murine pro-B, CellTiter-Glo luminescence, counter-screen for JAK2V617F inhibitor project (AID 1486).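 Also: 0% = DMSO wells and 100% = JAK Inhibitor I control wells.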 The note with it: Ba/F3 parental viability, CellTiter-Glo ATP luminescence; at 5.6 µM; stronger effect = higher value.
On to `CC(C)=N/N=C(\N)N[N+](=O)[O-]`, for which the inhibition is inactive: 4%.
Regarding `CN(C)C(=O)OCCc1n(C)cc[n+]1C`, the inhibition was inactive: 0.22%.
Under `CC1CCN(C(=O)Oc2c(Cl)cc(Cl)c3cccnc23)CC1` stands inactive: 2.53%; under `Nc1ccc([As](=O)(O)c2ccc(N)cc2)cc1`, inactive: -2.11%; under `C[N+]1=C2C=CC=CC=C2SC12C([N+](=O)[O-])=CC([N+](=O)[O-])=C[C-]2[N+](=O)[O-]` (centres undefined), inactive: -3.23%.
Under `CCN(/C(=N/P(=O)(N1CCOCC1)N1CCOCC1)N1CCOCC1)c1ccc(OC)cc1` stands inactive: 2.02%.
The figure for `CC(=O)N1C2C3N(C(C)=O)C1C1N(C(C)=O)C(C(N1C(C)=O)N3C(C)=O)N2C(C)=O` is inactive: 0.52%.
As for `O=[N+]([O-])c1cccc2n[nH]nc12`, the inhibition was inactive: 5.06%.
Under `Cc1ccc(NP(=O)(Oc2ccccc2)Oc2ccccc2)nc1` stands inactive: 22.5%.
The figure for `O=[N+]([O-])c1cc([N+](=O)[O-])c(CCNc2ccccc2)c([N+](=O)[O-])c1` is inactive: 12.4%; for `CCc1nc2c(n1)c1c(non1O)c1c2no[n+]1[O-]` it is active: 44.4%.
With `COc1ccc(C2=NCC(CBr)S2)cc1` (centres undefined), the inhibition is inactive: 1.99%.
Under `O=[N+]([O-])c1cccc(NC2=NCC(CBr)S2)c1` (centres undefined) stands inactive: 0.18%.
Under `O=C(O)CNc1ccc([As](=O)(O)O)cc1` stands inactive: -0.35%; under `CC(C)(C)C(=O)NC(Sc1ccncn1)C(Cl)(Cl)Cl` (centres undefined), inactive: -0.99%; under `O=[N+]([O-])c1ncn(CCn2ncnc2[N+](=O)[O-])n1`, inactive: 10.8%.
In the case of `O=C(Nc1cc([As](=O)(O)O)ccc1O)c1ccccc1`, the inhibition is inactive: -1.62%.
As to `CCN(N=Nc1nonc1N)c1nonc1N`, the inhibition is inactive: 0.36%.
As for `Nc1cccc2ccc([As](=O)(O)O)cc12`, the inhibition is inactive: -3.78%.
With `CCOP(=O)(Nc1ccccc1)OCC`, the inhibition is inactive: 2.59% and inactive: -4.93%.
Take `Cc1cc(SC(NC(=O)c2ccc(F)cc2)C(Cl)(Cl)Cl)ncn1` (centres undefined): the inhibition is inactive: 2.49%.
Under `Cc1ccc(NP(=O)(Oc2ccccc2F)Oc2ccccc2F)nc1` stands inactive: -0.79%; under `O=C(O)c1ccccc1[As](=O)(O)O`, inactive: 5.8%.
The figure for `CC(=O)Nc1ccc([As](=O)(O)O)cc1` is inactive: -2.82%; for `O=P(Nc1nc2ccc(Cl)cc2s1)(c1ccccc1)c1ccccc1` it is inactive: 3.16%.
The figure for `CC(C)CC(=O)NC(Sc1ccc(Cl)cc1)C(Cl)(Cl)Cl` (centres undefined) is inactive: 2.37%; for `Nc1cc(N)c2nonc2c1[N+](=O)[O-]` it is inactive: -2.54%; for `Oc1ccccc1CNc1ccccn1` it is inactive: 3.36%.
In the case of `Cc1c2non([O-])c-2c(C)[n+](=O)[n+]1[O-]`, the inhibition was inactive: 4.03%.
With `O=C(NC(Sc1ccncn1)C(Cl)(Cl)Cl)c1ccccc1` (centres undefined), the inhibition is inactive: 2.71%.
Under `COc1ccccc1OP(=O)(Nc1ccc(C)cn1)Oc1ccccc1OC` stands inactive: -0.76%; under `Cc1ccc(OP(=O)(Nc2nccs2)Oc2ccc(C)cc2)cc1`, inactive: 2.99%; under `Clc1ccc(Cl)c(NC2=NCC(CBr)S2)c1` (centres undefined), inactive: 2.27%.
Under `CN1CCCC(OC(=O)C(c2ccccc2)c2ccccc2)C1` (centres undefined) stands inactive: 2.36%; under `NC(=O)c1cc([N+](=O)[O-])cc([N+](=O)[O-])c1N`, inactive: -0.04%.
The figure for `Cc1ccc(N/C(=N/P(=O)(N2CCOCC2)N2CCOCC2)N2CCOCC2)cc1` is inactive: 8%; for `CC(=O)Nc1ccc([As](=O)(O)O)c(O)c1` it is inactive: 1.52%.
For the molecule `CC(=O)Nc1ccc(Oc2c([N+](=O)[O-])cc([N+](=O)[O-])cc2[N+](=O)[O-])cc1`, the inhibition is inactive: 0.09%.
Under `CC(C)(C)C(=O)NC(Sc1ccccc1)C(Cl)(Cl)Cl` (centres undefined) stands inactive: 3.2%; under `O=P1(Nc2nc3ccc(Cl)cc3s2)COc2ccccc2O1` (centres undefined), inactive: -1.32%.
Under `CCOc1ccc(C2=NCC(CBr)S2)cc1` (centres undefined) stands inactive: 4.98%; under `Cc1ccccc1OP(=O)(Nc1ccccn1)Oc1ccccc1C`, inactive: -1.53%.
The figure for `CN(C)C(=O)Oc1noc2ccccc12` is inactive: 3.17%.
Consider `O=c1c2cc([N+](=O)[O-])ccc2[nH]c2c([N+](=O)[O-])cc([N+](=O)[O-])cc12`, for which the inhibition was inactive: 2.98%.
Under `COC(=O)c1cc2c(s1)N=C(c1ccccc1)N(C)P2(=O)N1CCOCC1` (centres undefined) stands inactive: 5.18%; under `Cc1ccc(OP(=O)(Nc2ccccn2)Oc2ccc(C)cc2)cc1`, inactive: 1.79%.
In the case of `CC(=O)NC(SC(=S)N(CC(C)C)CC(C)C)C(Cl)(Cl)Cl` (centres undefined), the inhibition was inactive: 11.7%.
For `CCC(=O)N1C2C3N(C(=O)CC)C1C1N(C(=O)CC)C(C(N1C(=O)CC)N3C(=O)CC)N2C(=O)CC`, the inhibition is inactive: 0.28%.
The figure for `O=C(NC1CCS(=O)(=O)C1)NP(=S)(Oc1ccccc1)Oc1ccccc1` (centres undefined) is inactive: 4.01%; for `CCNC(=S)/N=C(\N)N[N+](=O)[O-]` it is inactive: 7.38%.
Under `c1ccc(-c2nn[nH]n2)c(-c2nn[nH]n2)c1` stands inactive: 1.29%; under `CCOC(=O)NC(Sc1ccccc1)C(Cl)(Cl)Cl` (centres undefined), inactive: -0.46%; under `Cc1ccc(NP(=O)(Oc2cccc(C)c2)Oc2cccc(C)c2)nc1`, inactive: -0.69%.
As for `Nc1ccc([As](=O)(O)c2ccc([N+](=O)[O-])cc2)cc1`, the inhibition is inactive: 2.08%.
`C(Cc1nn[nH]n1)Cc1nn[nH]n1`: the inhibition was inactive: 5.48%.
The figure for `O=C(OC1CN2CCC1CC2)c1cccc(Cl)c1` (centres undefined) is inactive: -0.54%; for `O=[N+]([O-])c1ncn(CCn2cnc([N+](=O)[O-])n2)n1` it is inactive: -0.93%.
For `CC(=O)NC(SC(=S)N(C)C)C(Cl)(Cl)Cl` (centres undefined), the inhibition is inactive: -1%.
`O=[As](O)(c1ccccc1)c1ccc(O)cc1`: the inhibition is inactive: 2.1%.
For `O=P(Nc1nc2ccccc2s1)(c1ccccc1)c1ccccc1`, the inhibition was inactive: -5.11%.
The figure for `O=P(Nc1ccccn1)(c1ccc(Br)cc1)c1ccc(Br)cc1` is inactive: 3.89%; for `c1nnnn1CCn1cnnn1` it is inactive: 2.58%; for `O=P(Nc1nccs1)(c1ccccc1)c1ccccc1` it is inactive: 5.03%.
The figure for `CC(C)C(=O)NC(Sc1ccccc1)C(Cl)(Cl)Cl` (centres undefined) is inactive: 2.72%.
The figure for `O=[As](O)(c1ccccc1Br)c1ccccc1Br` is inactive: -0.56%.
As for `CC1(CBr)Cn2c(nc3ccccc3c2=O)S1` (centres undefined), the inhibition was inactive: 1.94%.
As for `CN(C(=O)Cc1ccc(Cl)c(Cl)c1)[C@@H]1CCCC[C@H]1N1CCCC1`, the inhibition was inactive: -1.07%.
Under `CC(C)/C=N\N=C(\N)N[N+](=O)[O-]` stands inactive: 5.72%; under `Clc1n[nH]nc1-c1nn[nH][15n]1`, inactive: 2.52%; under `CC(C)(C)C(=O)NC(Sc1ncccn1)C(Cl)(Cl)Cl` (centres undefined), inactive: 2.23%.
Regarding `CCOP(=O)(Nc1ccc(C)cn1)OCC`, the inhibition was inactive: -2.12%.
The figure for `O=P1(Nc2ccccn2)COc2ccccc2OC1` is inactive: 6.58%; for `O=P1(Nc2ccc(Br)cn2)COc2ccccc2OC1` it is inactive: 0.55%; for `O=[As](O)(c1cccs1)c1cccs1` it is inactive: -8.21%.
`Cc1ccc(OCC(=O)OC2CN3CCC2CC3)cc1` (centres undefined): the inhibition was inactive: 0.17%.
Turning to `Nc1cccc([As](=O)(O)c2ccccc2)c1`, the inhibition is inactive: -1.62%.
The figure for `O=P1(Nc2ncccn2)COc2ccccc2OC1` is inactive: 11.1%; for `O=C(/C=C/c1ccccc1)OC1CN2CCC1CC2` (centres undefined) it is inactive: -1.04%; for `CN(C)C1(CNC(=O)c2ccc(S(C)(=O)=O)cc2)CCCCC1` it is inactive: -0.73%.
Under `Cc1nn(-c2ccccc2)c2c1P(=O)(N1CCOCC1)N(C)C(c1ccccc1)=N2` (centres undefined) stands inactive: 6.66%.
For the molecule `CC1CCC(C(C)C)C(OP(=O)(Nc2ccccn2)c2ccccc2)C1` (centres undefined), the inhibition is inactive: 6.12%.
Under `O=[N+]([O-])c1ccc2c(c1)nnn2O` stands inactive: -0.53%; under `CCOP1(=S)c2c(C)nn(CCC#N)c2N=C(c2ccc(F)cc2)N1C` (centres undefined), inactive: 0.86%; under `O=C(O)COc1ccc([As](=O)(O)O)cc1[N+](=O)[O-]`, inactive: -2.44%.
With `Nc1ccccc1[As](=O)(O)c1ccccc1`, the inhibition is inactive: -0.45%.
The figure for `CS(=O)(=O)c1cc([N+](=O)[O-])c2no[n+]([O-])c2c1` is inactive: 2.7%.
Under `CCOP1(=S)c2c(C)nn(CCC#N)c2N=C(c2ccccc2F)N1C` (centres undefined) stands inactive: 2.97%; under `O=P(Nc1nccs1)(c1ccccc1)c1nc2ccccc2s1` (centres undefined), inactive: 5%; under `O=P(Nc1nccs1)(Oc1ccccc1)Oc1ccccc1`, inactive: 8.12%.
With `COc1cc(C2NCCC3(OCCO3)C2(C)C)cc(OC)c1OC` (centres undefined), the inhibition was inactive: 5.88%.
The figure for `CCOP(=O)(Nc1cccc2ccccc12)OCC` is inactive: 1.27%; for `CCCOP(=S)(Nc1nc(N)cc(=O)[nH]1)OCCC` it is inactive: -1.56%.
The figure for `Nc1cccc2c([As](=O)(O)O)cccc12` is inactive: -2.76%; for `Cc1ccc(NCCc2c([N+](=O)[O-])cc([N+](=O)[O-])cc2[N+](=O)[O-])cc1` it is inactive: 3.69%.
Under `O=[As](O)(c1cccc(O)c1)c1cccc(O)c1` stands inactive: -1.76%; under `Cc1cccc(OCC(=O)OC2CN3CCC2CC3)c1` (centres undefined), inactive: 1.78%; under `COc1cc(C(=O)NCC2(N3CCOCC3)CCCCC2)cc(Cl)c1OC(C)C`, inactive: 2.28%.
For the molecule `O=[As](O)(O)c1cccnc1`, the inhibition is inactive: 0.18%.
On to `O=C(OC1CN2CCC1CC2)c1ccc(Cl)cc1` (centres undefined), for which the inhibition is inactive: 16.9%.
For the molecule `COc1ccc(N/C(=N/P(=O)(N2CCOCC2)N2CCOCC2)N2CCOCC2)cc1`, the inhibition was inactive: 4.37%.
The figure for `COc1ccc2nc(NP(=O)(c3ccccc3)c3ccccc3)sc2c1` is inactive: 3.63%.
Under `COc1cc(I)ccc1[As](=O)(O)O` stands inactive: 0.14%; under `O=C(OC1CN2CCC1CC2)C12CC3CC(CC(C3)C1)C2` (centres undefined), inactive: 0.01%.
For `Cc1cc(=O)[nH]c(N[N+](=O)[O-])n1`, the inhibition is inactive: 5.29%.
